Tested on: MDA-MB-436 cell line
Test: Inhibition of cell proliferation by ADC products in vitro
Format: cell-based
Conditions: 6 days, read-out: IC50, nM MDA-MB-436 cell line (FRα−)
Method: HCC1954 cells (HER2 positive, purchased from the cell bank of ATCC, Cat. No. CRL-2338) were normally cultured in a RPMI-1640 medium (Gibco, Cat. No. A1049101) with 1000 fetal bovine serum (FBS) (Gibco, Cat. No. A5669701) in a cell culture incubator at 37° C. and 500 CO2; and MDA-MB-468 cells (HER2 negative, purchased from Cell Resource Center, Shanghai Academy of Biological Sciences, Chinese Academy of Sciences) were both normally cultured in a DMEM medium with 10% fetal bovine serum (FBS) in a cell culture incubator at 37° C. and 5% CO2. The cells were added to a 96-well plate at 1.0×10^3 cells/well and 100 μL/well and incubated in a cell culture incubator at 37° C. and 500 CO2. […]
The OD450 optical density values were read on an EnVision™ multi-function microplate reader (PerkinElmer), and the inhibition rates (%) of the test antibody-conjugated drugs were calculated. […]
After 6 days of treatment with the antibody-conjugated drugs to be tested, 50 μL/well of CellTiter-Glo® reagent (Promega, Cat. No. G9243) was added to the wells, mixed thoroughly with shaking and incubated for 10 minutes. Chemiluminescence values were read on an EnVision™ multi-function microplate reader (PerkinElmer). […]

B1: ADC-33 (conjugate)
heavy: QVQLVQSGAEVVKPGASVKISCKASGYTFTGYFMNWVKQSPGQSLEWIGRIHPYDGDTFYNQKFQGKATLTVDKSSNTAHMELLSLTSEDFAVYYCTRYDGSRAMDYWGQGTTVTVSSASTKGPSVFPLAPSSKSTSGGTAALGCLVKDYFPEPVTVSWNSGALTSGVHTFPAVLQSSGLYSLSSVVTVPSSSLGTQTYICNVNHKPSNTKVDKKV[human IgG1 Fc not spelt out]
light: DIVLTQSPLSLAVSLGQPAIISCKASQSVSFAGTSLMHWYHQKPGQQPRLLIYRASNLEAGVPDRFSGSGSKTDFTLTISPVEAEDAATYYCQQSREYPYTFGGGTKLEIKRTVAAPSVFIFPPSDEQLKSGTASVVCLLNNFYPREAKVQWKVDNALQSGNSQESVTEQDSKDSTYSLSSTLTLSKADYEKHKVYACEVTHQGLSSPVTKSFNRGEC
  IC50: 16.4 nM

— patent US20260048138A1, “NOVEL PI3K AND/OR PIKK INHIBITORS, ANTIBODY-DRUG CONJUGATES COMPRISING THE SAME AND USES THEREOF” (HUTCHMED LIMITED, priority 2024, published 2026)
